Test results taken from patent publication US20100210668A1, “COMPOSITION AND METHOD FOR TREATMENT OR PREVENTION OF BENIGN PROSTATIC HYPERPLASIA AND LOWER URINARY TRACT SYMPTOMS” (DONG-A PHARM. CO., LTD., priority 2007, published 2010).

System: health men
Assay: Safety Test 2: vital signs in supine position, Silodosin combination
Assay type: in vivo, human
Method: 9 health men aged 19 to 50 years were divided into three groups according to randomization list, and administered by a) placebo and the pyrazolopyrimidinone of chemical formula (I) (Group A), b) placebo and Silodosin (Group B), and c) Silodosin and the pyrazolopyrimidinone of formula (I) (Group C) to evaluate the effect of the combinational administration of the pyrazolopyrimidinone of formula (I) and Silodosin on the safety.
The safety evaluation was performed by observing vital signs (diastolic blood pressure, pulse rate, body temperature), clinical laboratory testing, electrocardiogram, adverse reactions such as subjective symptom and objective symptom. In addition, the effect of drug-drug interaction on pharmacokinetics of the pyrazolopyrimidinone was observed.

C[C@H](Cc1cc2c(c(C(N)=O)c1)N(CCCO)CC2)NCCOc1ccccc1OCC(F)(F)F [Silodosin, reference compound]
Diastolic blood pressure mean: 112.4
